From publication PMC6117091, “The C. difficile clnRAB operon initiates adaptations to the host environment in response to LL-37” (PLoS Pathogens, 2018) come the findings set out here.

Molecules are shown by their SMILES.

Assay [1] concerns C. difficile clnR pMC123 PclnR::HIS-clnRAB. The experiment in a line: qRT-PCR, His-ClnR complementation. The note with it: 0.5 µg/ml LL-37; normalized to 630∆erm + pMC123 in BHIS; mean of 3 ± SEM.
Assay [2] deals with C. difficile 630∆erm pMC123. The experiment in a line: qRT-PCR, His-ClnR complementation. The note with it: 0.5 µg/ml LL-37; normalized to 630∆erm + pMC123 in BHIS; mean of 3 ± SEM.
In assay [3] the test system is C. difficile clnR pMC123. In words: qRT-PCR, His-ClnR complementation. The following applies: 0.5 µg/ml LL-37; normalized to 630∆erm + pMC123 in BHIS; mean of 3 ± SEM.
Assay [4] addresses His-ClnR. In words: Surface plasmon resonance (SPR). Type of assay: binding, Clostridioides difficile. The note with it: peptide immobilized on CM5 chip, 25°C immobilization; His-ClnR 10 μM to 0.625 μM, pH 7.3, Biacore X100, 1:1 affinity model.

Regarding `CC[C@H](C)[C@H](NC(=O)[C@H](CCCCN)NC(=O)[C@H](CCC(=O)O)NC(=O)[C@H](CCCCN)NC(=O)[C@H](CO)NC(=O)[C@H](CCCCN)NC(=O)[C@H](CCCNC(=N)N)NC(=O)[C@H](Cc1ccccc1)NC(=O)[C@H](Cc1ccccc1)NC(=O)[C@H](CC(=O)O)NC(=O)CNC(=O)[C@H](CC(C)C)NC(=O)[C@@H](N)CC(C)C)C(=O)NCC(=O)N[C@@H](CCCCN)C(=O)N[C@@H](CCC(=O)O)C(=O)N[C@@H](Cc1ccccc1)C(=O)N[C@@H](CCCCN)C(=O)N[C@@H](CCCNC(=N)N)C(=O)N[C@H](C(=O)N[C@H](C(=O)N[C@@H](CCC(N)=O)C(=O)N[C@@H](CCCNC(=N)N)C(=O)N[C@H](C(=O)N[C@@H](CCCCN)C(=O)N[C@@H](CC(=O)O)C(=O)N[C@@H](Cc1ccccc1)C(=O)N[C@@H](CC(C)C)C(=O)N[C@@H](CCCNC(=N)N)C(=O)N[C@@H](CC(N)=O)C(=O)N[C@@H](CC(C)C)C(=O)N[C@H](C(=O)N1CCC[C@H]1C(=O)N[C@@H](CCCNC(=N)N)C(=O)N[C@H](C(=O)N[C@@H](CCC(=O)O)C(=O)N[C@@H](CO)C(=O)O)[C@@H](C)O)C(C)C)[C@@H](C)CC)C(C)C)[C@@H](C)CC` [LL-37], the results for the “clnA (CD630_16180) relative expression” value in assay [1], in assay [2] and in assay [3] were 236.5 ± 22.7, 81.6 ± 20.5 and 44.9 ± 8.0, respectively. Also, the “vanZ1 (CD630_12400) relative expression” value in assay [1] amounted to 18.6 ± 2.3; in assay [3], 21.8 ± 1.8. The same compound had a Kd in assay [4] of 0.083 ± 0.014 µM.
